The text below walks through data of PubChem BioAssay AID463187 (University of Pittsburgh Molecular Library Screening Center, 2010).

Protein sequences, listed by entry. Tags and fused reporters are not part of them.
UniProt P08631, whole entry, looked up: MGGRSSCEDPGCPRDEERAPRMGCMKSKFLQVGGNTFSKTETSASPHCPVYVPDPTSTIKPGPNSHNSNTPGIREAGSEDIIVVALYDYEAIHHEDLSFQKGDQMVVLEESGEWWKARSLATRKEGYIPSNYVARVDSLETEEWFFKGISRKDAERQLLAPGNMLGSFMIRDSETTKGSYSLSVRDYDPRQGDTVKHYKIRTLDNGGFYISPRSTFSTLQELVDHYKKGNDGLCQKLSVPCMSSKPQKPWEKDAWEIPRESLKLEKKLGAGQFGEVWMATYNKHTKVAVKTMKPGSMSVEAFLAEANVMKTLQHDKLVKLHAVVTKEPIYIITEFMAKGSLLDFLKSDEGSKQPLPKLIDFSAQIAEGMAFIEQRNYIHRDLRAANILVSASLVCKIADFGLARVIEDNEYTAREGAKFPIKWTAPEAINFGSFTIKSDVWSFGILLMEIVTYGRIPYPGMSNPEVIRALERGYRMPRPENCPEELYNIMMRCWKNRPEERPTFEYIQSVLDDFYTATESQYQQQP

Molecules are shown by their SMILES. Only a part is listed here, and it is no random draw. Some salts and complexes are drawn in separate pieces, as the source files them; their charges need not balance. Activity calls are given as the source filed them.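 The calls were made as follows: active = Hck-Nef kinase inhibition above about 50% (limit read from the data); inactive = inhibition below that limit.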

Usually inhibition stands for the change of the read-out against control, counted positive when it falls.

The target of this assay is Tyrosine-protein kinase HCK (Homo sapiens) (UniProt P08631). In words: Hck:Nef complex kinase activity blockers – biochemical, Z-Lyte FRET, 384-well, Hck-YEEI, primary screen (AID 463187).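 Also: 0% = DMSO with Hck plus Nef and 100% = Hck alone without Nef.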 The note with it: Recombinant Hck-YEEI plus Nef, Z-Lyte FRET kinase assay; at 20 µM; hits give high values.
Consider `CCOC(=O)c1ccc(NP(C)(=O)Oc2ccc(Cl)cc2)cc1` (stereo unspecified), for which the inhibition was inactive: -31%.
`COc1ccc(NP(C)(=O)Oc2ccccc2OC)cc1` (stereo unspecified): the inhibition was inactive: 9.01%.
Then `CN(C)CCOC(=O)C(O)(c1ccccc1)C1CCCCC1` (stereo unspecified), with inactive: 1.11%; and `COc1ccc(OP(C)(=O)Nc2cccc(Br)c2)cc1` (stereo unspecified), with inactive: 1.16%; and `Cc1cc(-c2cccc3ccccc23)c(C)cn1.O=[N+]([O-])c1cc([N+](=O)[O-])c(O)c([N+](=O)[O-])c1`, with inactive: 1.38%.
Then `O=[N+]([O-])c1cc([N+](=O)[O-])c(NCC2CCS(=O)(=O)C2)c([N+](=O)[O-])c1` (stereo unspecified), with inactive: -11.8%; and `O=[N+]([O-])c1ccc(OP2(=O)COCCO2)cc1` (stereo unspecified), with inactive: -2.29%.
Then `CCOP(C)(=S)SCC(=O)NC(C)(CC)C(=O)O` (stereo unspecified), with inactive: 0.58%; and `CP(=O)(Nc1ccc(SC(F)(F)F)cc1)Oc1ccc(F)cc1` (stereo unspecified), with inactive: 15.5%.
For the molecule `Cc1ccccc1NP(C)(=O)Nc1ccccc1C`, the inhibition is inactive: -9.1%.
Regarding `CP(=O)(Nc1ccc2c(c1)OCCO2)Oc1ccccc1` (stereo unspecified), the inhibition is inactive: -0.525%.
With `CC(C)c1ccc(OP(C)(=O)Nc2ccc(SC(F)(F)F)cc2)cc1` (stereo unspecified) the figure was inactive: 4.53%; with `CP(=O)(Nc1ccccc1F)Oc1ccccc1` (stereo unspecified), inactive: 1.34%.
In the case of `COc1ccc2c(c1O)-c1c(O)c(OC)cc3c1[C@H](C2)[N+](C)(C)CC3.O=[N+]([O-])c1cc([N+](=O)[O-])c([O-])c([N+](=O)[O-])c1[O-]`, the inhibition was inactive: 23.2%.
With `O=C(OCCN1CCN(CCOCc2ccccc2)CC1)C(O)(c1ccccc1)c1ccccc1` the figure was inactive: 2.33%; with `O=C(OC1CN2CCC1CC2)c1ccc([N+](=O)[O-])cc1` (stereo unspecified), inactive: -0.273%.
Then `COc1ccc(OP(C)(=O)Nc2ccc(SC(F)(F)F)cc2)cc1` (stereo unspecified), with inactive: 14.3%; and `CCOC(=O)c1ccc(NP(C)(=O)Oc2ccc(F)cc2)cc1` (stereo unspecified), with inactive: -0.983%; and `CCCCCOc1ccc(NP(C)(=O)Oc2ccc(Cl)cc2Cl)cc1` (stereo unspecified), with inactive: -3.98%.
As to `CP(=O)(Nc1ccccc1)Oc1ccc(F)cc1` (stereo unspecified), the inhibition is inactive: 1.17%.
With `CCN(CC)CCCOC(=O)C(O)(c1ccccc1)C1CCCCC1` (stereo unspecified) the figure was inactive: 10.9%.
